{
  "source": "patent US5091547A",
  "about": "“Phenylacetic acid derivative and process for making same” (priority 1989, dated 1992)",
  "key": {"[1]": {"system": "ulcers induced by absolute ethanol", "assay": "Protective activity, ulcers induced by absolute ethanol", "type": "in vivo, rats", "conditions": "LV-216 11 mg/kg; sodium salt at equimolecular dose; control 86.3 ± 9.4", "from_the_text": "As explained previously, the compound of formula (I), which shall henceforth be referred to herein as LV-216, combines the advantage of anti-inflammatory and protective action.\nUsing the experimental model of ulcers induced by absolute ethanol described by Rober et al (Gastroenterology, 77: 433, 1979) the cytoprotective activity of LV-216 was compared with that of 2-(2,6-dichloroaniline)-phenylacetic acid at equimolecular doses and with a control group that was given only excipient."}, "Water solubility": {"assay": "Water solubility", "type": "physicochemical", "conditions": "both anhydrous and hydrated form"}, "[2]": {"system": "ulcerous lesions in the stomach and intestine", "assay": "Comparative ulcerogenic action, macroscopic lesion indices (Adami's criterion)", "type": "in vivo, Female Wistar rats", "protocol": "Group I: control (excipient) (n=8)\nGroup II: sodium salt 10 mg/kg (n=8)\nGroup IV: sodium salt 10 mg/kg+zinc sulphate 2.5 mg/kg (n=8) (equivalent doses).\nThe products were administered orally every day for four consecutive days. The animals were given no food during the 24 hours prior to the last dose."}},
  "note": "Values joined by “and” are separate entries in the source; they are usually repeats but may differ in a detail not shown here. Equal entries are not always repeated.",
  "data": [
    {"substance": "zinc compound of 2-(2,6-dichloroaniline)-phenylacetic acid [LV-216]", "values": [
      {"measurement": "mm lesion (lesion index)", "setting": "[1]", "value": "36.1 ± 8.9", "unit": "mm"},
      {"measurement": "Water solubility (in words)", "setting": "Water solubility", "value": "extremely water-insoluble"},
      {"measurement": "Macroscopic lesion index (x ± e)", "setting": "[2]; oral, daily for four consecutive days, SS 10 mg/kg, LV-216 11 mg/kg, SS 10 mg/kg + zinc sulphate 2.5 mg/kg, n=8, control 0.4 ± 0.2", "value": "1.1 ± 0.3 and 1.1"},
      {"measurement": "ulcerous index versus control (in words)", "setting": "[2]; versus control", "value": "not significant versus the control"},
      {"measurement": "t vs SS (lesion index)", "setting": "[2]; versus sodium salt", "value": "*** (p < 0.001)"}
    ]}
  ]
}
